{"source": "paper PMC9715946", "about": "“Bioenhancing effects of piperine and curcumin on triterpenoid pharmacokinetics and neurodegenerative metabolomes from Centella asiatica extract in beagle dogs” (Scientific Reports, 2022)", "test": "Percentage recovery in excreta (urine, faeces)", "assay_type": "in vivo, beagle dogs", "settings": "mean ± SD, n = 4; for Percent recovery in faeces: faeces 0–24 h; for Percent recovery in urine: urine 0–24 h", "text": "The proposed animal experiment was approved by the Institutional Animal Care and Use Committee of the Chulalongkorn University Laboratory Animal Centre (CULAC), Chulalongkorn University, Bangkok, Thailand (Protocol number 2073029, Approval date: February 5, 2021). […] The dogs were fed with a normal dog diet (Beauty Pro, Nippon Pet Food Co. Ltd.) once a day and water ad libitum. Two groups of four dogs were randomly used with a 2-week washout period. […] After receiving the test substances, the dogs were transferred to a metabolic cage for 48 h for the collection of urine and faeces. All animal procedures were performed in accordance with the ethical principles, regulations, and guidelines for the use of animals (National Research Council of Thailand, 2015). This study was conducted in compliance with the ARRIVE guidelines. […] All biological samples were kept at − 80 °C until required for analysis. Where the concentration of the samples exceeded the linear calibration curve, blank matrices were used to dilute the sample before protein precipitation. Methanol was used to extract the major triterpenoids from the biological samples for LCMS analysis. In brief, 50 µL of the biological sample was added to 200 µL methanol containing glycyrrhizin and glycyrrhetinic acid as internal standards. The mixture was then centrifuged at 12,000g for 10 min at 4 °C to collect the supernatant, and 10 µL of the supernatant was injected into the LCMS system to measure the concentration of the targeted analytes. […] The LCMS system was set up in accordance with the published method, using a Nexera Ultra High-Performance Liquid Chromatography equipped with 8060 triple quadrupole mass spectrometer controlled by LabSolution software version 5.86 (Shimadzu Corp.)[39]. A Synergi Fusion-RP C18 column (Phenomenex Inc.) was selected as the stationary phase and maintained at 40 °C in the column oven. […] S1, S2, and Table S1). The lower limit of quantification (LLOQ) of each of the compounds in this study ranged from 1.00 to 10.00 µg/L, according to the compound. After oral administration, pharmacokinetic parameters were determined by PK solution software version 2.0 (Submit Research Services, USA.) using non-compartmental analysis. The maximum plasma concentration (Cmax) and time to reach maximum plasma concentration (Tmax) were calculated directly from the concentration–time curves. The area under the curve from time 0–24 h (AUC0–24) was determined by the trapezoidal method and extrapolated to time infinity by the equation AUC0–inf = AUC0–24 + (Clast/kel), where Clast is the last measurable plasma concentration and kel is the elimination rate constant. The rate of bioavailability was equal to − 2.303 × slope. The mean residence time (MRT) was calculated as AUMC0–inf/AUC0–inf, where AUMC0–inf is the area under the first moment curve. The volume of distribution (Vd) was equivalent to dose/C0, where C0 is the concentration of drug measured in plasma at time zero. The total clearance (CL) was equal to dose/AUC0–inf, and the elimination half-life was determined by 0.693/kel. […] The difference in blood chemistry parameters pre-dose and post-dose was compared using Student’s t test. SPSS version 22.0 (IBM Corp.) was used to determine statistically significant differences between the experimental groups. The normal distribution of the data was checked using the Shapiro–Wilk test, and a paired Student’s t test or Wilcoxon signed-rank test was then performed, where appropriate. The percentage recovery of the test substances was calculated by dividing the total amount of test substance in the urine or faeces by the delivered dose. All data is presented as the mean ± standard deviation, except for Tmax and half-life, which are shown as median (IQR).", "key": {"[1]": {"settings": "after CTS + Cur 20 mg/kg p.o., Day 1"}, "[2]": {"settings": "after CTS + Cur 20 mg/kg p.o., Day 7"}, "[3]": {"settings": "after CTS + Pip 20 mg/kg p.o., Day 1"}, "[4]": {"settings": "after CTS + Pip 20 mg/kg p.o., Day 7"}, "[5]": {"settings": "after CTS + Pip + Cur 20 mg/kg p.o., Day 1"}, "[6]": {"settings": "after CTS + Pip + Cur 20 mg/kg p.o., Day 7"}}, "data": [{"substance": "asiaticoside", "values": [{"measurement": "Percent recovery in faeces", "setting": "after CTS 20 mg/kg p.o., Day 1", "result": "96.83 ± 12.20", "unit": "%"}, {"measurement": "Percent recovery in faeces", "setting": "after CTS 20 mg/kg p.o., Day 7", "result": "70.43 ± 23.82", "unit": "%"}, {"measurement": "Percent recovery in faeces", "setting": "[1]", "result": "97.30 ± 33.83", "unit": "%"}, {"measurement": "Percent recovery in faeces", "setting": "[2]", "result": "90.81 ± 40.45", "unit": "%"}, {"measurement": "Percent recovery in faeces", "setting": "[3]", "result": "93.78 ± 7.60", "unit": "%"}, {"measurement": "Percent recovery in faeces", "setting": "[4]", "result": "93.82 ± 58.80", "unit": "%"}, {"measurement": "Percent recovery in faeces", "setting": "[5]", "result": "96.64 ± 15.44", "unit": "%"}, {"measurement": "Percent recovery in faeces", "setting": "[6]", "result": "94.41 ± 42.80", "unit": "%"}, {"measurement": "Percent recovery in urine", "setting": "after CTS 20 mg/kg p.o., Day 1", "result": "2.90 ± 1.85", "unit": "%"}, {"measurement": "Percent recovery in urine", "setting": "after CTS 20 mg/kg p.o., Day 7", "result": "5.35 ± 1.13", "unit": "%"}, {"measurement": "Percent recovery in urine", "setting": "[1]", "result": "1.90 ± 0.74", "unit": "%"}, {"measurement": "Percent recovery in urine", "setting": "[2]", "result": "3.11 ± 1.02", "unit": "%"}, {"measurement": "Percent recovery in urine", "setting": "[3]", "result": "7.29 ± 7.96", "unit": "%"}, {"measurement": "Percent recovery in urine", "setting": "[4]", "result": "6.04 ± 1.68", "unit": "%"}, {"measurement": "Percent recovery in urine", "setting": "[5]", "result": "3.10 ± 1.28", "unit": "%"}, {"measurement": "Percent recovery in urine", "setting": "[6]", "result": "2.17 ± 0.99", "unit": "%"}]}]}
